PI4K2A block = PI4K2A (human) kinase inhibition; activity change, negative = inhibition, % at 76.9 µM; AID 1346378; hit rate 0.13% among 420,000; Q9BTU6; purified PI4K2A, ADP-Glo luminescence, 1 h; stronger effect = lower value; in the data active = activity change below about -50%; inconclusive = mostly about -30% to -49%;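 also: -100% = wells without enzyme as full effect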
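ADP-Glo luminescence measured ADP generated by PI4K2A enzyme (4 ug/mL before mixing) with 1.2 mM PI substrate (pre-mix) and 300 microM ATP (pre-mix). Tris pH7.5 buffer with MgCl2, Triton X-100; 1 h reaction at ambient temperature.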
Nrf2 activator = Nrf2 pathway activation; AREc32 ARE-luciferase reporter (MCF7-derived line), luminescence, 24 h; Potency, µM (series often up to 46.1 µM), for the others: at the highest dose activation, hits mostly activators; hit rate 0.31% among 410,000; AID 624171; also: potency is read from the fitted curve at half-maximal effect; % of control where 0% means no effect; nearly all actives have a fitted effect of over 65% in size
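Cells of the AREc32 ARE-luciferase line are plated in OPTI-MEM containing 5% FBS and left overnight at 37 deg C. Compounds are pinned in, incubation continues 24 hr, and firefly luciferase signal is then measured.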
GALK inhibitor = inhibitors of human galactokinase. P51570. Purified GALK, Kinase-Glo residual ATP luminescence. Potency, µM (top dose mostly 57.5 µM), for inactives: at the highest dose activity change, negative = inhibition, most hits filed as inhibitors. hit rate 0.007% among 270,000. AID 1868; also: potency is read from the fitted curve at half-maximal effect; % is scaled to controls: 0 for no effect and ±100 for the full control effect
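Galactose (100 uM) and ATP (35 uM) were turned over by 5 nM GALK for 1 h at RT. Kinase-Glo Plus then converted the remaining ATP into a luminescent signal.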
miR-21 FLuc = miR-21 reporter, rising signal; Potency, µM (titrated, usually from 38.3 µM), without a hit: at the highest dose reporter change, positive = more light; AID 2288; 340,000 tested, under 10 active; HeLa miR-21 FLuc reporter, luciferase, 48 h; active = well fitted rising curve with a large enough effect; inconclusive = small, poorly fitted or top-dose-only effect; inactive = no such curve, though single readings can be large or run the other way;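 note: % of control where 0% means no effect; miR-21 action dims this reporter so a rising signal means less miR-21 action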
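HeLa cells stably expressing CMV-driven firefly luciferase with a downstream miR-21 binding sequence, endogenously expressing miR-21, were treated with titrations (up to about 40uM final) for 48 hours at 37 degree Celsius. Luciferase luminescence was read after lysis.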
Nrf2 block = inhibitors of Nrf2 signaling; Potency, µM (top dose mostly 46 µM), for the others: at the highest dose activity change, negative = inhibition, most hits filed as inhibitors; AID 504444; hit rate 2.1% among 360,000; A549 ARE-Fluc reporter, luciferase luminescence, 18-24 h; also: potency is read from the fitted curve at half-maximal effect; % is scaled to controls: 0 for no effect and ±100 for the full control effect; nearly all actives have a fitted effect of over 60% in size
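Two sequential reads on A549 ARE_Fluc cells exposed to compound for 18-24 h: a CellTiter-Fluor fluorescence read for viability, then a luciferase luminescence read for Nrf2/ARE activity.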
A549 tox-1 = counter-screen for Nrf2 inhibitors: cytotoxicity in A549 cells | A549 ARE-Fluc cells, CellTiter-Fluor viability, 18-24 h | hit rate 0.16% among 390,000 | Potency, µM (doses to about 46 µM), for the others: top-dose activity change, negative = cytotoxicity, most hits filed as inhibitors | AID 504648; also: potency is read from the fitted curve at half-maximal effect; % is scaled to controls: 0 for no effect and ±100 for the full control effect
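A549 ARE_Fluc cells in 5% FBS OPTI-MEM were exposed to compounds in concentration-response for 18-24 h at 37 deg C. Viability was read by CellTiter-Fluor fluorescence (Ex 405/Em 525) after 30 min, before the luciferase read.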
FLuc counter 3 = firefly luciferase inhibition, Nrf2 hit validation; hit rate 4% among 1,400; shares compounds with Nrf2 block; Potency, µM (titrated, usually from 57.5 µM), for the others: top-dose activity change, negative = inhibition, hits mostly inhibitors; purified firefly luciferase, luminescence inhibition; AID 720522; also: potency is read from the fitted curve at half-maximal effect; % is scaled to controls: 0 for no effect and ±100 for the full control effect; nearly all actives have a fitted effect of over 65% in size
A549 tox-2 = toxic to A549 ARE-Fluc cells in Nrf2 counterscreen. shares compounds with Nrf2 block. hit rate 2% among 1,400. A549 ARE-Fluc cells, cytotoxicity counterscreen. Potency, µM (top dose mostly 46.1 µM), without a hit: at the top dose activity change, negative = cytotoxicity, usual class: inhibitors;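 also: potency is read from the fitted curve at half-maximal effect; cells exposed to compounds for 18 to 24 hours; % is scaled to controls: 0 for no effect and ±100 for the full control effect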
Nrf2 ARE inh = Nrf2 inhibition confirmed, A549 ARE-luciferase; shares compounds with Nrf2 block; A549 ARE-firefly luciferase reporter, luminescence; Potency, µM (doses to about 46.1 µM), for inactives: at the top dose activity change, negative = inhibition, hits mostly inhibitors; hit rate 74% among 1,400; AID 720524; also: potency is read from the fitted curve at half-maximal effect; % is scaled to controls: 0 for no effect and ±100 for the full control effect; nearly all actives have a fitted effect of over 65% in size
* marks the source's active call; other numbers are inactive results; ? = inconclusive; . = no result shown; ! = a repeat was not active. Rows were chosen to be rich in hits. Some 2.2% of all compounds tested hit in one or more screens of this group. Unless noted, calls follow the shape of the dose curve; as a rule, active = well fitted curve in the direction sought with a large enough effect; inconclusive = small, poorly fitted or top-dose-only effect, or another doubt; inactive = no such curve, though single readings can be large; an effect the other way counts as inactive or inconclusive.

Labels used below – A = PI4K2A block; B = Nrf2 activator; C = GALK inhibitor; D = miR-21 FLuc; E = Nrf2 block; F = A549 tox-1; G = FLuc counter 3; H = A549 tox-2; I = Nrf2 ARE inh
Structure: O=C(CSc1nc2ccccc2n1Cc1ccccc1)NN=Cc1c[nH]c2ccccc12
  A: -6	B: .	C: .	D: .	E: .	F: .	G: .	H: .	I: .

Structure: CC(=O)[C@@]1(O)Cc2c(O)c3c(c(O)c2[C@H](O[C@H]2C[C@H](N)[C@H](O)[C@H](C)O2)C1)C(=O)c1ccccc1C3=O
  A: 2	B: -2%	C: .	D: .	E: .	F: .	G: .	H: .	I: .

Structure: CC(=O)C1(O)Cc2c(O)c3c(c(O)c2C(OC2CC(N)C(O)C(C)O2)C1)C(=O)c1c(O)cccc1C3=O (stereo unspecified)
  A: .	B: .	C: .	D: .	E: .	F: .	G: -28%	H: ?	I: 0.46µM*

Structure: COc1cccc2c1C(=O)c1c(O)c3c(c(O)c1C2=O)CC(O)(C(C)=O)CC3OC1CC(N(C)C)C(O)C(C)O1 (stereo unspecified)
  A: -9	B: -1%	C: .	D: .	E: 2.3µM*	F: ?	G: -25%	H: ?	I: 1µM*

Structure: Cc1cc(Cl)ccc1OCC(=O)N/N=C/c1ccc[nH]1
  A: 3	B: .	C: .	D: .	E: .	F: .	G: .	H: .	I: .

Structure: COc1ccc(CN(C)Cc2nc(Cc3cccc(F)c3)no2)c2cccnc12
  A: 5	B: 2%	C: 4%	D: 9%	E: 3.3µM*	F: ?	G: 0%	H: -7%	I: ?

Structure: COc1cccc(-n2cc(CN(C)Cc3nc(Cc4cccc(F)c4)no3)cn2)c1
  A: 3	B: 0%	C: 1%	D: -6%	E: -13%	F: 9%	G: .	H: .	I: .

Structure: COC(=O)[C@]12C[C@H](CC(=O)NCC3CCCCC3)C(=O)N(Cc3ccco3)C1=C[C@H](C1CCCC1)O[C@@H]2C
  A: -4	B: .	C: .	D: .	E: .	F: .	G: .	H: .	I: .

Structure: Cc1ccc(Cn2cc(CN3[C@@H](CC(C)C)COc4cccc(F)c4S3(=O)=O)nn2)cc1
  A: -1	B: .	C: .	D: .	E: .	F: .	G: .	H: .	I: .

Structure: COc1cccc(CNC(=O)CCn2c(=O)c3cccn3c3cccnc32)c1
  A: 3	B: ?	C: 8%	D: -4%	E: 1.2µM*!	F: 1%	G: -2%	H: -3%	I: 7%

Part of the list above in order of SMILES length, highest first.
Labels used below – A = PI4K2A block; B = Nrf2 activator; C = GALK inhibitor; D = miR-21 FLuc; E = Nrf2 block; F = A549 tox-1; G = FLuc counter 3; H = A549 tox-2; I = Nrf2 ARE inh
Structure: CC(=O)[C@@]1(O)Cc2c(O)c3c(c(O)c2[C@H](O[C@H]2C[C@H](N)[C@H](O)[C@H](C)O2)C1)C(=O)c1ccccc1C3=O
  A: 2	B: -2%	C: .	D: .	E: .	F: .	G: .	H: .	I: .

Structure: COC(=O)[C@]12C[C@H](CC(=O)NCC3CCCCC3)C(=O)N(Cc3ccco3)C1=C[C@H](C1CCCC1)O[C@@H]2C
  A: -4	B: .	C: .	D: .	E: .	F: .	G: .	H: .	I: .

Structure: COc1ccc(CN(C)Cc2nc(Cc3cccc(F)c3)no2)c2cccnc12
  A: 5	B: 2%	C: 4%	D: 9%	E: 3.3µM*	F: ?	G: 0%	H: -7%	I: ?

Carrying on.
Labels used below – A = PI4K2A block; B = Nrf2 activator; C = GALK inhibitor; D = miR-21 FLuc; E = Nrf2 block; F = A549 tox-1; G = FLuc counter 3; H = A549 tox-2; I = Nrf2 ARE inh
Structure: CN(CCc1ccccn1)C(=O)c1ccc(Sc2ccccc2Cl)c([N+](=O)[O-])c1
  A: -1	B: .	C: .	D: .	E: .	F: .	G: .	H: .	I: .

Structure: N/C(=N\OC(=O)c1cccc2ccccc12)c1ccccn1
  A: 0	B: 23%	C: -2%	D: -21%	E: ?	F: -16%	G: .	H: .	I: .

Structure: NC(=Nc1nc(-c2ccccn2)cc2ccccc12)c1ccccn1
  A: 2	B: -1%	C: .	D: .	E: 1.5µM*	F: -17%	G: -3%	H: -23%	I: 1.6µM*

Structure: Cc1cc(Nc2ccccc2C(=O)O)n(-c2ccc([N+](=O)[O-])cc2)n1
  A: 7	B: 0%	C: -1%	D: -6%	E: 6.5µM*	F: ?	G: -14%	H: -5%	I: ?

Structure: Cc1csc(SCC(=O)Nc2sc3c(c2C#N)CCC3)n1
  A: -17	B: 2%	C: -3%	D: -16%	E: -22%	F: -26%	G: .	H: .	I: .

Structure: Cc1ccnc(SCC(=O)Nc2sc3c(c2C#N)CCCC3)n1
  A: 3	B: 4%	C: 0%	D: 6%	E: 9.2µM*	F: -21%	G: -4%	H: -20%	I: .

Structure: N=c1ccn(Cc2ccccc2Cl)cc1
  A: -12	B: 0%	C: 5%	D: 28%	E: .	F: ?	G: .	H: .	I: .

Structure: N=c1ccn(Cc2c(Cl)cccc2Cl)cc1
  A: -12	B: -1%	C: 1%	D: ?	E: 5.2µM*	F: -5%	G: 2%	H: -3%	I: 4.1µM*

Structure: CC(C)CSc1ncccc1-c1nc2ccccc2[nH]1
  A: 0	B: .	C: .	D: .	E: .	F: .	G: .	H: .	I: .

Structure: COc1ccc(CN(CCN2CCOCC2)C(=O)c2cc(F)ccc2F)cc1OC
  A: 1	B: .	C: .	D: .	E: .	F: .	G: .	H: .	I: .

(more compounds)
Labels used below – A = PI4K2A block; B = Nrf2 activator; C = GALK inhibitor; D = miR-21 FLuc; E = Nrf2 block; F = A549 tox-1; G = FLuc counter 3; H = A549 tox-2; I = Nrf2 ARE inh
Structure: COC(=O)c1cc(C(c2ccccc2O)C2CCC(C)(C)O2)n2ccccc12 (stereo unspecified)
  A: 4	B: .	C: .	D: .	E: .	F: .	G: .	H: .	I: .

Structure: COc1ccc2[nH]c3c(C)c4ccncc4c(C)c3c2c1
  A: 3	B: -3%	C: .	D: ?	E: 8.2µM*	F: ?	G: -26%	H: ?	I: 2.6µM*

Structure: Cc1c2ccncc2cc2c1[nH]c1ccccc12
  A: 1	B: -1%	C: .	D: .	E: -24%	F: ?	G: .	H: .	I: .

Structure: O=S(=O)(c1ccc(Cl)s1)N1CCC(c2cn3ccccc3n2)CC1
  A: -3	B: .	C: .	D: .	E: .	F: .	G: .	H: .	I: .

Structure: O=C(Nc1ccc(N2CCOCC2)cc1)c1ccc(Cl)c(S(=O)(=O)N2CCCC2)c1
  A: -4	B: 1%	C: .	D: .	E: 9.2µM*	F: 0%	G: -2%	H: -3%	I: 7.3µM*

Structure: COc1ccc(CNC(=O)c2ccc(Cl)c(S(=O)(=O)N3CCOCC3)c2)cc1OC
  A: 1	B: -1%	C: .	D: .	E: 1.3µM*	F: ?	G: 0%	H: 5%	I: .

Structure: O=C(NCCc1ccccc1)c1ccc(Cl)c(S(=O)(=O)N2CCCC2)c1
  A: -3	B: 0%	C: -3%	D: 16%	E: ?	F: -6%	G: .	H: .	I: .

Structure: COc1ccc(CCNC(=O)c2ccc(Cl)c(S(=O)(=O)N3CCCCCC3)c2)cc1
  A: -8	B: -1%	C: .	D: .	E: 8.2µM*	F: -13%	G: 0%	H: -10%	I: 8.2µM*

Structure: CC1CN(S(=O)(=O)c2cc(C(=O)NCCC3=CCCCC3)ccc2Cl)CC(C)O1 (stereo unspecified)
  A: -3	B: 3%	C: .	D: .	E: 8.2µM*	F: -19%	G: ?	H: -15%	I: 5.8µM*

Structure: O=C(NCCC1=CCCCC1)c1ccc(F)c(S(=O)(=O)N2CCOCC2)c1
  A: -8	B: 0%	C: -1%	D: -9%	E: 3%	F: -4%	G: .	H: .	I: .

Later entries:
Labels used below – A = PI4K2A block; B = Nrf2 activator; C = GALK inhibitor; D = miR-21 FLuc; E = Nrf2 block; F = A549 tox-1; G = FLuc counter 3; H = A549 tox-2; I = Nrf2 ARE inh
Structure: Cc1ccc(C(=O)Nc2ccc(N3CCOCC3)cc2)cc1S(=O)(=O)N1CCCCC1
  A: 6	B: 0%	C: .	D: .	E: ?	F: 3%	G: .	H: .	I: .

Structure: O=C(NCCc1ccc(F)cc1)c1ccc(Cl)c(S(=O)(=O)N2CCOCC2)c1
  A: 0	B: 0%	C: .	D: .	E: 8.2µM*	F: -9%	G: -12%	H: -8%	I: ?

Structure: CC1CCCN(S(=O)(=O)c2cc(C(=O)NCCc3ccc(S(N)(=O)=O)cc3)ccc2Cl)C1 (stereo unspecified)
  A: 10	B: 0%	C: .	D: .	E: 4.1µM*	F: ?	G: 1%	H: -26%	I: 12µM*

Structure: CN(CCc1ccccc1)C(=O)c1ccc2c(c1)ncn2C1CCCCC1
  A: 1	B: .	C: .	D: .	E: .	F: .	G: .	H: .	I: .

Structure: Cc1nc2c(-c3ccccc3)c(C)[nH]n2c(=O)c1Cc1ccc(C(C)C)cc1
  A: -1	B: -1%	C: .	D: ?	E: 4.6µM*	F: ?	G: 3%	H: -21%	I: 5.8µM*

Structure: Cc1nc2c(-c3ccccc3)c(C)[nH]n2c(=O)c1Cc1ccc(Br)cc1
  A: -1	B: -1%	C: .	D: ?	E: 8.2µM*	F: ?	G: -2%	H: ?	I: 3.3µM*

Structure: Cc1ccc(Cc2c(C)nc3c(-c4ccccc4)c(C)[nH]n3c2=O)cc1
  A: 0	B: 0%	C: .	D: 0%	E: 1%	F: -10%	G: .	H: .	I: .

Structure: Cc1ccc(-c2cc(C(=O)NN=Cc3cccc(Oc4ccccc4)c3)[nH]n2)cc1C
  A: -2	B: .	C: .	D: .	E: .	F: .	G: .	H: .	I: .

Bioassay records (PubChem BioAssay)
